## scFv variants of Ab-14 (light chain) against a SARS-CoV-2 spike peptide

Values reported by Li et al. 2023, doi:10.1038/s41467-023-39022-2 (FLAb copy).

Target: peptide PDVDLGDISGINAS, taken from heptad repeat 2 (HR2) of SARS-CoV-2 spike.

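Phage display of a naive human antibody library on the peptide gave the parent. Designed CDR sequences, proposed from the first random library and measured here. Their group label is 14L_En_Gen (En: ensemble of fine-tuned language models; Gen: genetic algorithm). The assay is AlphaSeq: two haploid yeast populations carry antibody and antigen on their surface. Binding brings cells together so that they mate, and sequencing counts the barcode pairs among the diploids. The ratio of observed to expected reads was calibrated, replicate by replicate, on BCL2-family standards whose Kd was known from biolayer interferometry. Mating was done six times.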

Parent: Ab-14, a human scFv built as VH, three GGGGS repeats, VL. Only the CDRs of the light chain vary.
VH: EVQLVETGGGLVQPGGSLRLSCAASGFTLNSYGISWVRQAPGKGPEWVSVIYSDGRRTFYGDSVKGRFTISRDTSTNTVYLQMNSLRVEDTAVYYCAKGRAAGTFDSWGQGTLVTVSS
VL: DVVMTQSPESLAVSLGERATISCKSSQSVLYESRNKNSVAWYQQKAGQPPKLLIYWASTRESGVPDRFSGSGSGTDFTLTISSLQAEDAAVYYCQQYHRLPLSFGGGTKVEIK

Each variant is given by its three light chain CDRs, as the data file delimits them; those of the parent are KSSQSVLYESRNKNSVA, WASTRES, QQYHRLPLS. Numbers give log10(Kd / nM), so 0 is 1 nM and 3 is 1 µM. Smaller is tighter. The mean shown is taken over the replicates in which the pair was detected. A pair that was not seen in that replicate is written "nd"; this usually means weak binding, but a binder can also be missed. The range of this assay differs from that of the first round, and the authors advise against merging the two. Empty control strains, which show no peptide, gave a signal in 4% of pairings with all light chain designs; the median was 2.64 and 95% of these signals were weaker than 1.59. No background was subtracted. The control count says in how many pairings with the empty strains this scFv gave a signal, with their mean in brackets. The authors' rule: three or more of the six replicates give a measured affinity, fewer mean a poor binder.

| # | CDR-L1 | CDR-L2 | CDR-L3 | log10 Kd, replicates | mean, log10 nM | empty controls |
|---|---|---|---|---|---|---|
| 1 | TLYGLSNSMSKNKNNVA | EMTTRED | QQYDRLPLV | 0.38 / 0.81 / 0.57 / 1.06 / 0.29 / 1.15 | 0.71 | 0/18 |
| 2 | KLLQNTGVGMRWAQNVA | HMSTRED | QQYHRLPFV | 0.85 / 0.53 / 0.52 / 0.42 / 0.88 / 0.73 | 0.66 | 0/18 |
| 3 | TISGVMQTQSHSKNNVA | EMTTREK | QQYVRLPLA | 0.21 / 0.09 / -0.23 / 0.05 / -0.07 / 0.11 | 0.03 | 1/18 (2.03) |
| 4 | MISQLMNLGQFAINSVA | QATIRNS | QQYDRLPLM | nd / 0.87 / 0.74 / 1.32 / 1.33 / 1.17 | 1.09 | 0/18 |
| 5 | MISQIYNMGQFAINSVA | QAQTRNE | QQYDRLPLM | 1.32 / 0.98 / nd / 1.15 / 2.52 / 1.05 | 1.41 | 0/18 |
| 6 | MMSSIMGYESRHINNVA | QTSTREA | QQYDRLPLI | 0.58 / 0.31 / 0.15 / 0.16 / 0.13 / 0.22 | 0.26 | 1/18 (2.98) |
| 7 | MISNVMNTLTRYGNNVA | DLAEREE | QQYFRLPLS | 0.71 / 0.69 / 0.70 / 0.90 / 0.61 / 0.61 | 0.70 | 1/18 (2.50) |
| 8 | MMSQVTGQGQRHRNNVA | QTSTREP | QQYDHLPLI | 1.87 / 1.31 / 1.23 / 2.09 / 1.48 / 1.88 | 1.64 | 3/18 (2.80) |
| 9 | KVSEFMRGLMQRTDSIA | DNVTRNN | QQYDRLPLS | 2.31 / 2.24 / 1.91 / 2.06 / 2.08 / 2.14 | 2.13 | 4/18 (3.19) |
| 10 | MISQLYNMGQFAINSVA | QASTRME | QQYHRLPLI | 1.98 / 1.22 / 1.55 / 2.34 / 0.34 / 0.94 | 1.39 | 0/18 |
| 11 | IVSQLMLWGLHAKNSIA | EAVTRLN | QQYERLPLF | 2.10 / nd / 0.93 / 1.96 / 2.39 / nd | 1.84 | 0/18 |
| 12 | MISQLMNYGQFAINSVA | QATIRNS | QQYDRLPLA | nd / nd / nd / nd / nd / nd | nd | 0/18 |
| 13 | KISMSINMTFQASNNVA | EMATREK | QQYHRLPLS | 2.53 / 1.76 / 1.83 / 2.15 / 2.44 / 2.30 | 2.17 | 1/18 (3.39) |
| 14 | MIYGAQRELGLMANSIA | DNVTRQD | QQYNRLPLS | nd / nd / nd / 3.85 / nd / 2.83 | 3.34 | 3/18 (2.77) |
| 15 | TISQMWNMGQFAINSVA | QAELRND | QQYDRLPLT | 2.15 / 2.23 / 2.35 / 1.84 / 1.78 / 2.00 | 2.06 | 2/18 (2.69) |
| 16 | HMSMLTLGGMRHRNSVA | QMTTREN | QQYDRLPLS | 0.78 / 1.02 / 0.99 / 0.98 / 1.28 / 1.10 | 1.03 | 0/18 |
| 17 | IVSQLMLWGMHAKNSIA | EAEMRLN | QQYHRLPLF | nd / nd / nd / nd / nd / nd | nd | 0/18 |
| 18 | KISYLANQTFEESNNVA | EMVTREK | QQYNRLPLS | 1.43 / 0.21 / nd / 1.14 / nd / nd | 0.93 | 0/18 |
| 19 | KLVNFMNRGTHMTSNIA | DAQNRSD | QQYARLPLA | 1.22 / 0.54 / 0.79 / 0.92 / 1.05 / 0.92 | 0.91 | 0/18 |
| 20 | KVSEFMRGLMRRQDSIA | DNETRES | QQYDRLPLS | 1.24 / 1.30 / 1.49 / 1.96 / 1.94 / 1.46 | 1.57 | 3/18 (3.36) |
| 21 | IVSQLMLWGYHAKNSIA | EAEQRLN | QQYERLPLF | nd / nd / nd / 2.25 / nd / 2.30 | 2.28 | 0/18 |
| 22 | HLSAMWGVESVKSRNVA | ENNTREQ | QQYDRLPLS | 2.56 / nd / 3.13 / nd / 1.72 / 2.19 | 2.40 | 0/18 |
| 23 | KVSEFMKGLMMRTDSIA | DNTTRNQ | QQYDRLPLS | 2.84 / nd / 2.82 / 3.84 / 1.84 / 2.92 | 2.85 | 1/18 (2.94) |
| 24 | TISQITSSFSMNINNVA | EVSTREK | QQYDRLPLS | nd / 1.00 / 1.51 / 1.91 / 0.61 / 1.96 | 1.40 | 0/18 |
| 25 | HLGYATMLEETVRNSVA | NNSTREE | QQYDRLPLS | 2.04 / 2.51 / 1.63 / 2.24 / 2.67 / 2.17 | 2.21 | 1/18 (1.96) |
| 26 | QLYELSVELSGKTHSVA | DNSTRGD | QQYFRLPLE | 0.98 / 1.26 / 1.08 / 1.08 / 1.27 / 0.95 | 1.10 | 1/18 (3.16) |
| 27 | MISQVMNTLTREGNNVA | DLAERER | QQYFRLPLS | 1.16 / 0.31 / 0.37 / 0.90 / 0.96 / 0.61 | 0.72 | 0/18 |
| 28 | HLGLATMLEEIVRNSVA | NNSTRED | QQYDRLPLS | 1.20 / 0.87 / 1.05 / 0.37 / 1.01 / 1.13 | 0.94 | 2/18 (3.23) |
| 29 | MISQLYNMGQFAINSVA | QASQRNT | QQYDRLPLM | 2.13 / 1.50 / 1.55 / 1.21 / 1.37 / 2.05 | 1.64 | 0/18 |
| 30 | MISQLYNMGQFAINSVA | QASQRNA | QQYDRLPLM | nd / 0.94 / 0.49 / nd / nd / 0.89 | 0.77 | 0/18 |
| 31 | IVSQLMLWGMHVKNSIA | EAVTRVN | QQYDRLPLF | nd / nd / nd / nd / nd / nd | nd | 1/18 (0.52) |

Repeated from above, the 4 best binders with a signal in all replicates:

CDR-L1	CDR-L2	CDR-L3	log10 Kd, replicates	mean, log10 nM	empty controls
TISGVMQTQSHSKNNVA	EMTTREK	QQYVRLPLA	0.21 / 0.09 / -0.23 / 0.05 / -0.07 / 0.11	0.03	1/18 (2.03)
MMSSIMGYESRHINNVA	QTSTREA	QQYDRLPLI	0.58 / 0.31 / 0.15 / 0.16 / 0.13 / 0.22	0.26	1/18 (2.98)
KLLQNTGVGMRWAQNVA	HMSTRED	QQYHRLPFV	0.85 / 0.53 / 0.52 / 0.42 / 0.88 / 0.73	0.66	0/18
MISNVMNTLTRYGNNVA	DLAEREE	QQYFRLPLS	0.71 / 0.69 / 0.70 / 0.90 / 0.61 / 0.61	0.70	1/18 (2.50)